Assay results: US20090105136A1, “NPY Y2 Agonist for Use as Therapeutic Agent for Disease Accompanied by Diarrhea” (priority 2005, published 2009)

Key:
Type in all cases: in vivo
[1] = tested on: mice (C57BL/6); test: Fecal weight as indicator for colonic motility; conditions: 3 mg/kg intraperitoneal, vs vehicle control mice
Method: (§1) In the test, mice (C57BL/6) were used, and they were housed and fed in the same manner as in Example 1.
Subsequently, PYY3-36 (3 mg/kg) was intraperitoneally administered to the mice, and the fecal weight was measured in a time-dependent manner (1, 2, 3, and 4 hours after the administration). At the same time, the fecal weight was also measured for control mice to which only a vehicle was administered.

[2] = tested on: mice (C57BL/6); test: Castor oil-induced defecation and diarrheal symptom
Method: as §1
Subsequently, each of PYY3-36 (3 mg/kg) and other test agents (loperamide (1 mg/kg) (Comparative example 1) and atropine (10 mg/kg) (Comparative example 2)) was intraperitoneally administered to the mice, and at 15 minutes after the administration, castor oil (0.3 ml/animal) was orally administered to the mice. The fecal weight and diarrhea score (normal: 0, soft feces: 1, watery feces: 2) were measured in a time-dependent manner (1, 2, and 4 hours after the administration). At the same time, the same measurement was carried out for mice to which only a vehicle was administered and castor oil was not administered.

[3] = tested on: mice (C57BL/6); test: Motility of stomach and small intestine (charcoal transit, GI motility); conditions: 0.3 mg/kg or 3 mg/kg intraperitoneal; 30 minutes after oral charcoal; vs vehicle control mice; FIG. 1
Method: First, mice (C57BL/6) to be used in the test were prepared. Mice were individually housed in cages with a floor mat in an animal room with a controlled environment (temperature: 23° C., relative humidity: 55%, lighting hours: from 7:00 till 19:00) with ad libitum access to rodent chow (CE-2, Nippon CLEA) and drinking water.
Subsequently, NPY (0.3 mg/kg or 3 mg/kg) or PYY3-36 (0.3 mg/kg or 3 mg/kg) was intraperitoneally administered to the mice, and the motility of stomach and small intestine was measured. At the same time, control mice (vehicle) to which only a vehicle was administered were prepared, and the same test was carried out using these mice. The motility of stomach and small intestine was measured as follows. That is, charcoal powder was suspended in a 0.5% methyl cellulose solution and the resulting suspension was orally administered to the mice. After 30 minutes, the distance that the charcoal entering into the stomach traveled in the intestinal tract was measured by dissection. At the same time, the total length of the small intestine from the pyloric portion of stomach to the beginning of the cecum was also measured, and the ratio (%) of the distance that the charcoal traveled to the total length of the small intestine was plotted in a graph as a GI (gastrointestinal) motility.

Substance: PYY3-36
- fecal weight over time ([1]; 1, 2, 3 and 4 hours after administration, FIG. 2): significantly lower than that of the control mice
- total fecal weight in 4 hours after administration ([1]; FIG. 3): a significant difference was observed
- maximum diarrhea score observed until 4 hours after castor oil ([2]; 3 mg/kg intraperitoneal 15 minutes before castor oil, score normal 0, soft feces 1, watery feces 2, vs vehicle plus castor oil control mice, FIG. 5): significantly inhibited
- fecal weight after castor oil treatment ([2]; 3 mg/kg intraperitoneal 15 minutes before oral castor oil 0.3 ml/animal, 1, 2 and 4 hours, vs vehicle plus castor oil control mice, FIG. 4): significantly lower than that of the control mice
- inhibitory effect on diarrheal symptom in comparison with loperamide and atropine ([2]; PYY3-36 3 mg/kg vs loperamide 1 mg/kg and atropine 10 mg/kg, intraperitoneal, castor oil model): high inhibitory effect
- GI (gastrointestinal) motility: ratio of distance the charcoal traveled to total length of small intestine [3]: lower than that of the control mice
